Data taken from PMC3224645 (Purinergic Signalling, 2011).

Chains of the proteins cited; added tags and fusions are not shown.
UniProt P0DMS8, whole entry: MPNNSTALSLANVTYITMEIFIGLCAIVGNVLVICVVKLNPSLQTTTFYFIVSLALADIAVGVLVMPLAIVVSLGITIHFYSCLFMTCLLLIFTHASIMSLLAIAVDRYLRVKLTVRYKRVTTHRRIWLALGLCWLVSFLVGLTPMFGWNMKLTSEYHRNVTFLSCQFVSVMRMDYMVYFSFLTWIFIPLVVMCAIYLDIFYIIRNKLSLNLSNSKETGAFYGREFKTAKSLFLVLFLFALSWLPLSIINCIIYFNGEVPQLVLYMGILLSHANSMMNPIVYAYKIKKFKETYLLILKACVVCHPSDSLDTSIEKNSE

Molecular target: hA3R (Homo sapiens, UniProt P0DMS8)
Assay: cAMP accumulation assay
Format: cell-based

Question: What does the source list for CNC(=O)[C@H]1O[C@@H](n2cnc3c(NCc4cccc(I)c4)nc(Cl)nc32)[C@H](O)[C@@H]1O [Cl-IB-MECA, 2-chloro-N ^6-(3-iodobenzyl)adenosine-5′-N-methylcarboxamide]?
Answer: effect of ADA on the agonist's inhibition of cAMP production (agonist 10 μM + ADA 0.8 IU/ml): insensitive to the enzyme; inhibition of forskolin-stimulated cAMP production (agonist at 10 μM): more potent effect
